Laboratory results taken from PubChem BioAssay (EPA / NIEHS).
This is a selection; strong and weak results do not stand in their true shares. Calls of active or inactive are those of the source. How the source made its calls: active means hit-call score of the fitted dose curve at least 0.9, where 1 is the maximum; inactive means score below 0.9.

Protein sequences, listed by entry. Tags and fused reporters are not part of them.
UniProt P19838, whole entry: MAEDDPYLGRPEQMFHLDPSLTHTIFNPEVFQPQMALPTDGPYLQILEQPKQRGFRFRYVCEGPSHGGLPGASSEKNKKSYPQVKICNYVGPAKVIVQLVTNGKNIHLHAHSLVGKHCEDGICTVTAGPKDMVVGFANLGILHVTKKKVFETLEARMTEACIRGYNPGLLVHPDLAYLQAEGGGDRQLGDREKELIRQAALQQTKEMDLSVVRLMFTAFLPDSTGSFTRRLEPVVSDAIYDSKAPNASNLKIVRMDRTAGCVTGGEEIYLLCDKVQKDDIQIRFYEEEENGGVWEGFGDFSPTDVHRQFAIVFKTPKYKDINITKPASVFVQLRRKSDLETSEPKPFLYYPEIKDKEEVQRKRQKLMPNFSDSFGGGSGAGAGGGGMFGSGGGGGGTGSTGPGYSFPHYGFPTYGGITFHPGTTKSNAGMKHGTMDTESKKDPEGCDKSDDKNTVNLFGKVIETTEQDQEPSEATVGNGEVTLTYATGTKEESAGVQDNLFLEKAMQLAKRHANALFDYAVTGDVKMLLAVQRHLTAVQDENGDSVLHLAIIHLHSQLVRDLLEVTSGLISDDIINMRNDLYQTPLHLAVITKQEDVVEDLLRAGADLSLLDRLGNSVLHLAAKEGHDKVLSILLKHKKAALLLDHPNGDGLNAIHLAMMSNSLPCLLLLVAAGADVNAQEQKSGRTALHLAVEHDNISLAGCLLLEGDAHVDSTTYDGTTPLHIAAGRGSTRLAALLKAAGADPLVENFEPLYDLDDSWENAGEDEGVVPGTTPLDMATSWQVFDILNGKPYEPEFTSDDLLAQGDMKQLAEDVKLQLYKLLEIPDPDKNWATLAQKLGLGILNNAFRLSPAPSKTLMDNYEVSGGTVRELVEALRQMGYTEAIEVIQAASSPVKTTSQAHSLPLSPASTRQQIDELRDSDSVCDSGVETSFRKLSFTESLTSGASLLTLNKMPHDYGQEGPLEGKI

What was measured:
Conditions in all cases: actives raise or lower the signal; mRNA level, 48 h
[1] = read-out: Lipoprotein lipase (LPL), LPL (gene 4023); assay: LTEA_HepaRG_LPL: Life Technologies and Expression Analysis (LTEA) Assay for Lipoprotein lipase (LPL) using HepaRG (AID 2283515)
How it was run: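 Differentiated human HepaRG cells in serum-free induction medium were exposed in duplicate for 48 h to eight half-log concentrations (top 100 uM) in 0.5% DMSO. LPL mRNA was quantified by TaqMan qRT-PCR, normalized to ACTB, GAPDH and POLR2A.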

[2] = read-out: MicroRNA 122 (MIR122), gene 406906; assay: LTEA_HepaRG_MIR122: Life Technologies and Expression Analysis (LTEA) Assay for MicroRNA 122 (MIR122) using HepaRG (AID 2283516); further: the transcript read is the microRNA miR-122
Procedure: (§1) LTEA_HepaRG is a cell based, multiplexed-readout assay that uses HepaRG, a human liver cell line, with measurements taken at 48 hours after chemical dosing on a 96-well plate.LTEA_HepaRG_MIR122 is one of 102 assay component(s) measured in the LTEA HepaRG cell culture assay. It is a marker of MicroRNA.Data from the assay component LTEA_HepaRG_MIR122 was analyzed into 1 endpoint. This assay endpoint, LTEA_HepaRG_MIR122, was analyzed with bidirectional fitting relative to DMSO as the negative control and baseline of activity. Using a type of inducible reporter, measures of mRNA induction for gain or loss-of-signal activity can be used to understand regulation of transcription factor activity. To generalize the intended target to other relatable targets, this assay endpoint is annotated to the microrna intended target family, where the subfamily is post-transcriptional regulation.
(§2) A total of 1060 chemcials from the ToxCast library were tested in eight-point concentration-response experiments. Cell culture and cytotoxicity assays were conducted at Thermo Fisher Scientific's Custom Services facility (Madison, WI). A single lot of human HepaRG cells (Thermo Fisher Scientific, Frederick, MD) was used for the cell culture experiments. 96-well format collagen type I coated plates of human HepaRG cells were prepared using established methods. Briefly, cryopreserved HepaRG cells were thawed, plated at a density of approximately 100,000 cells/well in HepaRG Thaw, Plate, and General Purpose media (HPRG770, Thermo Fisher Scientific), and incubated for 48 hours. 0.5% DMSO was selected as vehicle control to balance the requisite need of DMSO in HepaRG cultures to maintain differentiation (for example, baseline metabolism, proportions of hepatocytes vs. cholangiocytes), while enabling further hepatic receptor pathway activation (for example, PXR and CAR) in response to chemical exposure. 48 hours after plating, the culture medium was replaced with HepaRG Serum-Free Incudtion Media. Cells were exposed to each test chemical in duplicate and maintained in CO2 incubators for another 48 hours. Chemical plates were thawed to room temperature and 200x concentrations of treatment groups were prepared. 8-point conentration-reponse curves were made with the highest exposure at 100 uM, followed by half-log dilutions, all in 0.5% DMSO. Each test plate contained variouse controls, induction positive controls (1mM phenobarbital), cytotoxicity positive controls ([…] aflatoxin B1), vehicle controls (0.5% DMSO), and total lysis controls (0.5% DMSO). Cell morphology images were taken using an Essen IncuCyte FLR automated microscope, with six 96-well plates imaged in about 24 minutes. Images were captured and exported and JPEG files. Spent culture media was transfered to black-well plates for the LDH assay, and remaining media was sorted at -80 C for later use. Cells were treated with RLT buffer and frozen until shipped for gene expression analysis. Total RNA was isolated from the cell suspension in 75 uL of Buffer RLT (Qiagen, Germantown, MD 20874) by Quintiles/Expression Analysis (Durham, NC) using a custom isolation procedure. Total RNA from each plate well was transferred to a preamplification plate. Fluidigm's 96.96 Dynamic ArrayTM (Fluidigm, Amsterdam, the Netherlands) technology was used for gene expression analyses by quantitative reverse transcription polymerase chain reaction (qRT-PCR, performed by Quintiles/Expression Analysis, Durham, NC)89. […]

[3] = read-out: matrix metalloproteinase-10 (MMP10), MMP10 (gene 4319); assay: LTEA_HepaRG_MMP10: Life Technologies and Expression Analysis (LTEA) Assay for matrix metalloproteinase-10 (MMP10) using HepaRG (AID 2283517)
Procedure: as §1, with “plate.LTEA_HepaRG_MMP10” for “plate.LTEA_HepaRG_MIR122”, “Fibrosis.Data” for “MicroRNA.Data”, “LTEA_HepaRG_MMP10” for “LTEA_HepaRG_MIR122”, “LTEA_HepaRG_MMP10,” for “LTEA_HepaRG_MIR122,”, “protease” for “microrna”, “matrix metalloproteinase.” for “post-transcriptional regulation.”
as §2

[4] = read-out: MYC, MYC (gene 4609); assay: LTEA_HepaRG_MYC: Life Technologies and Expression Analysis (LTEA) Assay for MYC using HepaRG (AID 2283518)
How it was run: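 HepaRG, ~100,000 cells/well, collagen I; 48 h plating; serum-free induction medium; 48 h dosing, duplicate, 100 uM top, half-log, 0.5% DMSO; total RNA → qRT-PCR MYC; gain/loss fit vs DMSO.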

[5] = read-out: matrix metalloproteinase-3 (MMP3), MMP3 (gene 4314); assay: LTEA_HepaRG_MMP3: Life Technologies and Expression Analysis (LTEA) Assay for matrix metalloproteinase-3 (MMP3) using HepaRG (AID 2283519)
How it was run: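 Differentiated human HepaRG cells, plated 48 h on collagen I, were exposed in duplicate for 48 h in serum-free induction medium to eight half-log concentrations up to 100 uM in 0.5% DMSO. MMP3 mRNA was quantified by TaqMan qRT-PCR, normalised to ACTB, GAPDH and POLR2A.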

[6] = read-out: Paternally Expressed 10 (PEG10), PEG10 (gene 23089); assay: LTEA_HepaRG_PEG10: Life Technologies and Expression Analysis (LTEA) Assay for Paternally Expressed 10 (PEG10) using HepaRG (AID 2283520)
How it was run: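 Differentiated HepaRG cells exposed 48 h in serum-free induction medium to eight half-log concentrations topping at 100 uM, 0.5% DMSO, in duplicate. PEG10 mRNA quantified by TaqMan qRT-PCR, normalized to ACTB, GAPDH and POLR2A; bidirectional fit versus DMSO.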

[7] = read-out: Nuclear factor NF-kappa-B p105 subunit (Homo sapiens) (UniProt P19838); assay: LTEA_HepaRG_NFKB1: Life Technologies and Expression Analysis (LTEA) Assay for Nuclear Factor Kappa B Subunit 1 (NFKB1) using HepaRG (AID 2283521);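 further: TaqMan qRT-PCR transcript normalised to ACTB GAPDH and POLR2A housekeeping genes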
How it was run: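 HepaRG, 48 h exposure; 8-pt half-log series from 100 uM in 0.5% DMSO; duplicates. Readout: NFKB1 mRNA by qRT-PCR (Fluidigm arrays), housekeeping-normalized. Gain/loss fit vs DMSO baseline.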

[8] = read-out: Protein phosphatase 2A (PPP2R4), PTPA (gene 5524); assay: LTEA_HepaRG_PPP2R4: Life Technologies and Expression Analysis (LTEA) Assay for Protein phosphatase 2A (PPP2R4) using HepaRG (AID 2283522)
Procedure: as §1, with “plate.LTEA_HepaRG_PPP2R4” for “plate.LTEA_HepaRG_MIR122”, “Cell proliferation, survival, death.Data” for “MicroRNA.Data”, “LTEA_HepaRG_PPP2R4” for “LTEA_HepaRG_MIR122”, “LTEA_HepaRG_PPP2R4,” for “LTEA_HepaRG_MIR122,”, “phosphatase” for “microrna”, “serine/threonine phosphatase.” for “post-transcriptional regulation.”
as §2

[9] = read-out: Phosphatase and tensin (PTEN), PTEN (gene 5728); assay: LTEA_HepaRG_PTEN: Life Technologies and Expression Analysis (LTEA) Assay for Phosphatase and tensin (PTEN) using HepaRG (AID 2283523)
How it was run: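 Differentiated human HepaRG cells, plated 48 h then switched to serum-free induction medium, were exposed in duplicate for 48 h to eight half-log concentrations up to 100 uM in 0.5% DMSO. PTEN mRNA measured by TaqMan qRT-PCR, normalized to ACTB/GAPDH/POLR2A, bidirectional fit versus DMSO.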

[10] = read-out: solute carrier (SLC22A1), SLC22A1 (gene 6580); assay: LTEA_HepaRG_SLC22A1: Life Technologies and Expression Analysis (LTEA) Assay for solute carrier (SLC22A1) using HepaRG (AID 2283524)
How it was run: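 Human HepaRG cells were plated 48 h, switched to serum-free induction medium, then exposed in duplicate for 48 h to 8-point half-log series from 100 uM in 0.5% DMSO. SLC22A1 mRNA measured by qRT-PCR, normalized to ACTB/GAPDH/POLR2A, fitted bidirectionally versus DMSO.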

Measured: outcome

Cc1ccc([N+](=O)[O-])cc1[N+](=O)[O-]
inactive: all assays above

O=[N+]([O-])c1cccc([N+](=O)[O-])c1
inactive: all assays above

CC(C)OP(C)(=O)OC(C)C
inactive: all assays above

Cc1c([N+](=O)[O-])cccc1[N+](=O)[O-]
inactive: all assays above

Cc1cccc([N+](=O)[O-])c1[N+](=O)[O-]
inactive: all assays above
